# Results reported in patent EP0710486A1, “REMEDY FOR URINATION DISORDER ACCOMPANYING PROSTATIC HYPERTROPHY” (YAMANOUCHI PHARMACEUTICAL CO. LTD., priority 1993, dated 1995).
# The chains behind the UniProt entries cited, without tags or fusion partners.
# UniProt P15823, whole entry: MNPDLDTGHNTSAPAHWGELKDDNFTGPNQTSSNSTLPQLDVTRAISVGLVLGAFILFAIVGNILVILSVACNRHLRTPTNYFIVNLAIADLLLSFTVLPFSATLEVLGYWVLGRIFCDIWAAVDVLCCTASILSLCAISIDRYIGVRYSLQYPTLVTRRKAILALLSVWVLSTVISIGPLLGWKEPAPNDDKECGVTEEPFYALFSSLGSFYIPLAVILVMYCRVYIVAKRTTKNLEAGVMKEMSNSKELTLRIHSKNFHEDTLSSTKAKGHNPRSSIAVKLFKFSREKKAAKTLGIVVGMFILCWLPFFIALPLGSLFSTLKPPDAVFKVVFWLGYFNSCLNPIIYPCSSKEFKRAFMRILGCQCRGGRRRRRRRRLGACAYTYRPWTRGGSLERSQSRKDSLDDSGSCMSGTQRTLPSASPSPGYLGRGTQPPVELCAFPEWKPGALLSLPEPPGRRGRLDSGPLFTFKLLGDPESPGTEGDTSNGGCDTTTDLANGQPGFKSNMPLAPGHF
# UniProt P23944, whole entry: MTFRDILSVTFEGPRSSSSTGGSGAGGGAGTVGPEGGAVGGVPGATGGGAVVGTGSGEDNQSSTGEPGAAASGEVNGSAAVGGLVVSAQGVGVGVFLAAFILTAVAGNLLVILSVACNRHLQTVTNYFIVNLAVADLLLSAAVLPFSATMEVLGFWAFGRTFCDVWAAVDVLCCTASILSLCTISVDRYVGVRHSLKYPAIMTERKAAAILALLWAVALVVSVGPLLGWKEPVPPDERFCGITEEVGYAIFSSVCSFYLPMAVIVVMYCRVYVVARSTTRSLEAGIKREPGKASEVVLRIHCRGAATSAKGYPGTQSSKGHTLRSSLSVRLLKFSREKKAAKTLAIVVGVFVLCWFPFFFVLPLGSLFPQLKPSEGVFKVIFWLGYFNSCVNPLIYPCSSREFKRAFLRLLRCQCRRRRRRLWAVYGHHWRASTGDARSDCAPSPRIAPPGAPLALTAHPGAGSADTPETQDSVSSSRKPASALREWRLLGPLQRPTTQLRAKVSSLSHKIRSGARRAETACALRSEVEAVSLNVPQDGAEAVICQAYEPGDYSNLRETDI
# What was measured:
# [1] = molecular target: T1, bovine α1C-receptor subtype (Bos taurus, UniProt P18130); experiment: Saturation binding of [³H] prazosin to membranes of transfected COS-7 cells; conditions: average ± SEM, n=6
# T1 construct: pBCα1c which contains the entire coding region of bovine α1C receptor subtype; expressed in transfected cells; host or cells: COS-7 cells, transient expression, membrane preparation
# T1 sequence (P18130 1-466): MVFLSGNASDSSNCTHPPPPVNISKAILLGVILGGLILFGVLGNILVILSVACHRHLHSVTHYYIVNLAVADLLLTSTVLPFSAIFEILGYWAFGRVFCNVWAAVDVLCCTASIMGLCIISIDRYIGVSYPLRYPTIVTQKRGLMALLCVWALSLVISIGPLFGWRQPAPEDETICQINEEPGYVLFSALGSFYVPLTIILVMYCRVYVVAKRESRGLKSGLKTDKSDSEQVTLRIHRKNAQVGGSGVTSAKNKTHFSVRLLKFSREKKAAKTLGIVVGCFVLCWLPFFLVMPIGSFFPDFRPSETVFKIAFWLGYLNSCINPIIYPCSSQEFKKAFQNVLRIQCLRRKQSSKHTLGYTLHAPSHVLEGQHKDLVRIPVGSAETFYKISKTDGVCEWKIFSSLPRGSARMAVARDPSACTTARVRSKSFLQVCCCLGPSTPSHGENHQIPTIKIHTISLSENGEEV
# rat α1B-receptor subtype = rat α1B-receptor subtype (Rattus norvegicus, UniProt P15823); conditions: COS-7 membranes, 25°C, 45 minutes, average ± SEM, n=5
# Method: (§1) After 4 days of the transfection, these cells were again suspended in an ice-cold buffer for binding experiment (50 mmol/l Tris, 0.5 mmol/l EDTA, pH 7.5) and homogenized using Tissumeizer for 10 seconds at a maximum speed and then twice for 20 seconds at 2/3 speed. The thus obtained homogenate was centrifuged at 50,000 g for 20 minutes, and the resulting pellet was again suspended in the buffer for binding experiment to a concentration of 0.5 to 2 mg/ml.
# (§2) This incubation was terminated by quick filtration under a reduced pressure using Whatman GF/C filter paper. Non-specific binding was defined as binding in the presence of 10 µmol/l of phentolamine. […] The protein content was determined in accordance with the Bradford method using bovine IgG as an standard. In the competitive binding experiment, each compound was evaluated by 3 to 4 tests using at least two separate batches of transfected cells.
# (§3) The result was shown as the average value ± SEM of n times of tests.
# [2] = molecular target: rat α1A/D-receptor subtype (Rattus norvegicus, UniProt P23944); conditions: COS-7 membranes, 25°C, 45 minutes, average ± SEM, n=8
# Method: as §1, §2, §3
substance,measurement,setting,value
[³H] prazosin,Kd,"[1]; COS-7 membranes, 25°C, 45 minutes",0.252 ± 0.051 nM
same,BMAX,[1],492 ± 177 fmol/mg protein
same,Kd,rat α1B-receptor subtype,0.178 ± 0.087 nM
same,Kd,[2],0.148 ± 0.015 nM
